Results on one molecule are retold here after ChEMBL document CHEMBL1131637, “Novel and selective 5-HT2C/2B receptor antagonists as potential anxiolytic agents: synthesis, quantitative structure-activity relationships, and molecular modeling of substituted 1-(3-pyridylcarbamoyl)indolines” (J Med Chem, 1998).

Amino acid sequences for entries named in this document (tags omitted). A change or cut given only in a name is not applied to a line headed by its entry.
UniProt P28335: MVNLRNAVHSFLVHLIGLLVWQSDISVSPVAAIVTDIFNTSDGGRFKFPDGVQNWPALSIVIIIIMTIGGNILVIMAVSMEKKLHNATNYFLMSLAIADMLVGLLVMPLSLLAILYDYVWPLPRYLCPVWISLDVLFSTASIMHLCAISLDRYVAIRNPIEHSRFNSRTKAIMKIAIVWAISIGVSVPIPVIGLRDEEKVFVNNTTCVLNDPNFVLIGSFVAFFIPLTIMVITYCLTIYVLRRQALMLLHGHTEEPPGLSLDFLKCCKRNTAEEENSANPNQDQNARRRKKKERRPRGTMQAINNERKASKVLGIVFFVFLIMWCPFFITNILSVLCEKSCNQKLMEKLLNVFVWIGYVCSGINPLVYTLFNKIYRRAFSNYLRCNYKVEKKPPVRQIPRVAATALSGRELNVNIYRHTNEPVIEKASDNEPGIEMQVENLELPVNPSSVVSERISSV
UniProt P28223, whole entry: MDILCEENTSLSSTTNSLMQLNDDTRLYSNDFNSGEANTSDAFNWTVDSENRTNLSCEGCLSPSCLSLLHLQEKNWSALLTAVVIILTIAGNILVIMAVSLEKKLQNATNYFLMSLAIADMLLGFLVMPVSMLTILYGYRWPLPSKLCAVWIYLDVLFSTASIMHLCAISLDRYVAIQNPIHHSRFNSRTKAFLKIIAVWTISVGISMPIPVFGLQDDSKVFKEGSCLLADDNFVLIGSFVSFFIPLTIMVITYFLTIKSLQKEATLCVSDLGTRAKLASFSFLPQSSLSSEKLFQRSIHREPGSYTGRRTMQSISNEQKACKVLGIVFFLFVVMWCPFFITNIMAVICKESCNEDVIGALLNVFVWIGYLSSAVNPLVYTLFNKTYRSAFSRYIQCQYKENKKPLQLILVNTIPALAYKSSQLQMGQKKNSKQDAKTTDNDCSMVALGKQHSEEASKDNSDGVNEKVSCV

The term Ki denotes a measure of affinity in units of concentration, obtained from inhibition or displacement.

SMILES strings stand for the structures.

Assay [1] addresses 5-hydroxytryptamine receptor 2C (Homo sapiens, UniProt P28335). Put plainly: Binding affinity towards cloned human 5-hydroxytryptamine 2C receptor expressed in HEK 293 cells using [3H]mesulergine as radioligand. Format: cell-based, HEK293.
Assay [2] addresses 5-hydroxytryptamine receptor 2A (Homo sapiens, UniProt P28223). Put plainly: Binding affinity towards human 5-hydroxytryptamine 2A receptor expressed in HEK 293 cells using [3H]ketanserin as radioligand. The class given is cell-based, HEK293. The method in brief:
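Radioligand binding on human cloned receptors stably expressed in HEK 293 cells; 5-HT2A labelled with [3H]ketanserin, 5-HT2B with [3H]-5-HT. Values are means of at least two determinations, each within 0.2 log unit of the mean.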

Consider `O=C(Nc1cccnc1)N1CCc2c1ccc(Cl)c2Cl`, for which the inhibition constant Ki was 25.1 nM in assay [1] and 631 nM in assay [2].
